Our source for the IC50 values is BindingDB's records for doi:10.1080/14756360802218334 (Cardiff University, 2009).

A word on the IC50: it is the concentration at which inhibition is half-maximal. High values mean lower potency, low ones higher potency.

The target of the assay is T1, Cytochrome P450 26A1 (Homo sapiens, UniProt O43174).
T1 sequence (O43174 whole entry): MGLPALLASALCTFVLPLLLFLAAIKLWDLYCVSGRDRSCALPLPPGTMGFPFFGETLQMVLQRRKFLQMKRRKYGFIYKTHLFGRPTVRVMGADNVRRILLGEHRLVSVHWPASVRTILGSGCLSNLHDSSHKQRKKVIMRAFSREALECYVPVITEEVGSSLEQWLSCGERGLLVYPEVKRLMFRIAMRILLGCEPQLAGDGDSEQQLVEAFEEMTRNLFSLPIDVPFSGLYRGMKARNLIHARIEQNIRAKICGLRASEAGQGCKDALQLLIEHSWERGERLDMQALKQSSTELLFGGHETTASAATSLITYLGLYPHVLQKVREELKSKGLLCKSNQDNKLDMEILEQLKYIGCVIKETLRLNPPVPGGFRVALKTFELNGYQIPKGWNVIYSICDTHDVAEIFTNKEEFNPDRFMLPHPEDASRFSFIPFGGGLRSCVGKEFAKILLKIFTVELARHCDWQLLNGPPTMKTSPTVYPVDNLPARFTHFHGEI
The assay can be described thus: Cell Assay. The procedure:
The imidazole derivatives were evaluated for their retinoic acid metabolism inhibitory activity using a MCF-7 cell assay, using radiolabelled all-trans retinoic acid as the substrate and liarozole and R115866 as standards for comparison.

`Clc1cccc(C(c2ccc3[nH]cnc3c2)n2ccnc2)c1` (stereo unspecified) [6-((3-chlorophenyl)(1H-imidazol-1-yl)methyl)-1H-benzo[d]imidazole] yielded an IC50 of 7 µM.
